Key:
[1] = molecular target: Phosphatidylinositol 4,5-bisphosphate 3-kinase catalytic subunit alpha isoform (Homo sapiens, UniProt P42336); experiment: Inhibition of PI3Kalpha (unknown origin)
[2] = molecular target: T1, Phosphatidylinositol 4,5-bisphosphate 3-kinase catalytic subunit delta isoform (Homo sapiens, UniProt O00329); experiment: Inhibition of PI3Kdelta (unknown origin)
T1 sequence (O00329 whole entry): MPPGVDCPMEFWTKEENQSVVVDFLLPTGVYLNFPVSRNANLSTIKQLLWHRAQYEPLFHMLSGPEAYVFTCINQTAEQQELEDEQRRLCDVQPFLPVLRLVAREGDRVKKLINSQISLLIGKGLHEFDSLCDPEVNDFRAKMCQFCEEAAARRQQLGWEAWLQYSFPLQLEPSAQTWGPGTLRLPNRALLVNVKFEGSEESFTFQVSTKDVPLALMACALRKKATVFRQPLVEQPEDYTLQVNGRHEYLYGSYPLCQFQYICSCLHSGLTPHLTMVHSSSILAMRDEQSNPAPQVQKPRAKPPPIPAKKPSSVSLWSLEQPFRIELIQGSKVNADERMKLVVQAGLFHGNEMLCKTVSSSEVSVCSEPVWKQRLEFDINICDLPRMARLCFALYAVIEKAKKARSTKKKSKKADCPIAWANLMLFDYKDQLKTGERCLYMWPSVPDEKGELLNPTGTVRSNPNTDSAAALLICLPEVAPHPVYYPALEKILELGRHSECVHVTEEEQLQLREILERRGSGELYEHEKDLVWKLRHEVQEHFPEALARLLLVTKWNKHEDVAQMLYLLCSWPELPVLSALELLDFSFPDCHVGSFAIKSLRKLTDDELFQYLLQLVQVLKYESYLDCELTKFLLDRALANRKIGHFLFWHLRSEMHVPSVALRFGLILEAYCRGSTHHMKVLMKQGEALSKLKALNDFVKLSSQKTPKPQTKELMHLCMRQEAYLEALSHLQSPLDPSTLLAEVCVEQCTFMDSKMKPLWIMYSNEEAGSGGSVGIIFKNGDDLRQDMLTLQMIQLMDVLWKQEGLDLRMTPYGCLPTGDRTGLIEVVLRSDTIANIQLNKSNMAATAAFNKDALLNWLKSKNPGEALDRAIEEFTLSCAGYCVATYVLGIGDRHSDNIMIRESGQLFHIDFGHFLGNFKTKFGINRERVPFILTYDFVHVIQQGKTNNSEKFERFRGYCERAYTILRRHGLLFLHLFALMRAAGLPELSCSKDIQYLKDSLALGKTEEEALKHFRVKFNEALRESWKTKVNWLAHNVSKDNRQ

Chains of the proteins cited; added tags and fusions are not shown.
UniProt P42336, whole entry: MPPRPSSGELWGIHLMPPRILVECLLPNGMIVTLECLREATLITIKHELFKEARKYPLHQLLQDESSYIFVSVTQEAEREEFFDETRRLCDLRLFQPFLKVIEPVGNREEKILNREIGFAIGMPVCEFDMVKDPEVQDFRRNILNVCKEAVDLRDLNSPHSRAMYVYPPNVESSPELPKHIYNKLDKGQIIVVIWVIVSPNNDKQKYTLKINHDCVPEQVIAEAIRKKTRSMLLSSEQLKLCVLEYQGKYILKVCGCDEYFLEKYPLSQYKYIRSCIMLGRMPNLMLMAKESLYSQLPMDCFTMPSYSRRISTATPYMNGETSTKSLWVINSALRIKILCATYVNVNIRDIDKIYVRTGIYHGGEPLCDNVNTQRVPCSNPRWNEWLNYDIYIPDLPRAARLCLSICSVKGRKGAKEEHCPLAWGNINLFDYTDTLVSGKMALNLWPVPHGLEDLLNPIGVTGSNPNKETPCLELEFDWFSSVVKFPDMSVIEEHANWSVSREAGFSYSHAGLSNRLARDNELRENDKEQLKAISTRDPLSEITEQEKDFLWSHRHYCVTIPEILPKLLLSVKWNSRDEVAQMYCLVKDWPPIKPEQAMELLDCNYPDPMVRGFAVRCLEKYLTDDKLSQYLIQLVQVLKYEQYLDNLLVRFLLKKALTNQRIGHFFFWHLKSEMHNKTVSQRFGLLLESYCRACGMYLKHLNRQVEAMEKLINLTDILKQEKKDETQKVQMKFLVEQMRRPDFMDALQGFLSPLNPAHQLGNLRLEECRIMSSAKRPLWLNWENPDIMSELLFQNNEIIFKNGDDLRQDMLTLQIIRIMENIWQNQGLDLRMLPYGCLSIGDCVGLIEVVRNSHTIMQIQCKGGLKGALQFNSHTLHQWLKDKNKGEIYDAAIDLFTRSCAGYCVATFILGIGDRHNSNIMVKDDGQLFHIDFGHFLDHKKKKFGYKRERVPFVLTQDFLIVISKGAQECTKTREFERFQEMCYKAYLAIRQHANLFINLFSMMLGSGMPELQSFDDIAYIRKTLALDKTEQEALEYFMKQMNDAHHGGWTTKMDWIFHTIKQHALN

IC50 [1]: 17 nM
IC50 [2]: 23 nM
SMILES: C[C@H](NC(=O)c1c(N)nn2cccnc12)c1cc2cccc(C#Cc3cnn(C)c3)c2c(=O)n1-c1ccccc1 [EGANELISIB]

— ChEMBL document CHEMBL4330088, “Targeting the immunity protein kinases for immuno-oncology” (Eur J Med Chem, 2019)
